Experimental data from patent publication US11752155B2, “Treatment of autism spectrum disorders, obsessive-compulsive disorder and anxiety disorders” (Rugen Holdings (Cayman) Limited, priority 2016, dated 2023).

By UniProt entry, the sequences of proteins in these tests, tags left out. Residues count along the entry.
UniProt Q12879, 23-1464: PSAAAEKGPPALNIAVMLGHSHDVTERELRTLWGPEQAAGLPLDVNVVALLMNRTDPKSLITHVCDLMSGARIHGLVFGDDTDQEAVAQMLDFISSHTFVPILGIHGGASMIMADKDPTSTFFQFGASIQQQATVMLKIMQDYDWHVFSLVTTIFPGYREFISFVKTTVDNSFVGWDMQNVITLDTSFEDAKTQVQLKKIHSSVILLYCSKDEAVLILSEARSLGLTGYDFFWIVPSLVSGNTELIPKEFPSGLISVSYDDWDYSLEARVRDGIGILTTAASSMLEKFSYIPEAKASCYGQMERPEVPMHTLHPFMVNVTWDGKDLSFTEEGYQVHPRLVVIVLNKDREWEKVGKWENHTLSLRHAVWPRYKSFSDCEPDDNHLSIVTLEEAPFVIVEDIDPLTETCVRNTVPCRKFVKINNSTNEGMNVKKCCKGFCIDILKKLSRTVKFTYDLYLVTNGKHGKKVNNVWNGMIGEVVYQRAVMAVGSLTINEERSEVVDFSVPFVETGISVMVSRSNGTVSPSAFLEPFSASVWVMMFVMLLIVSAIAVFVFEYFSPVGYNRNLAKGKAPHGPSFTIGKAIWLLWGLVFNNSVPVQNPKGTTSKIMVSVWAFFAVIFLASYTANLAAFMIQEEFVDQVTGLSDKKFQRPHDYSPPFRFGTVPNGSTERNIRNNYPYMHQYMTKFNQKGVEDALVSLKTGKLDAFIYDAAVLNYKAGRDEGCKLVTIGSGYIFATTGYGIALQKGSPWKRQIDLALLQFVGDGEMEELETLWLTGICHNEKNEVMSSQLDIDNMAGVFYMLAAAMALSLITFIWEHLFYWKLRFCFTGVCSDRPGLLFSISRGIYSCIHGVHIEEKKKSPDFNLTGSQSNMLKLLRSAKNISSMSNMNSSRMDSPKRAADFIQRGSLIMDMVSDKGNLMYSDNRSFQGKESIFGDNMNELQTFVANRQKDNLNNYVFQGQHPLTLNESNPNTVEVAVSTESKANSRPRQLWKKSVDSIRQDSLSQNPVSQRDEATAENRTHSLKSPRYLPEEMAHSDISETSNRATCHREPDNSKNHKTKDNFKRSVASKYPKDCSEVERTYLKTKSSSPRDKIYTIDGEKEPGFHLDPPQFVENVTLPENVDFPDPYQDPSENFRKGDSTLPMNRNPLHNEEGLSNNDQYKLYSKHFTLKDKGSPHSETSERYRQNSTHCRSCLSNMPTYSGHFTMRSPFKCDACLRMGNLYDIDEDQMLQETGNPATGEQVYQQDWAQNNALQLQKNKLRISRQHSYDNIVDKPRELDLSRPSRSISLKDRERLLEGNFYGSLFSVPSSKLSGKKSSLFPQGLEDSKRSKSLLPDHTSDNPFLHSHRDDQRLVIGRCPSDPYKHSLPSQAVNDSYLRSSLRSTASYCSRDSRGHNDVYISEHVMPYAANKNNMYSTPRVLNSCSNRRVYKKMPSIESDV

Biological target: human NR1/NR2A (Homo sapiens (Human), UniProt Q05586+Q12879)
Assay: NR2A antagonist activity: calcium influx (Fluo-4) assay in HEK293 cells
Type: cell-based
Protocol: Activation of the NR2A or NR2B subtype of NMDA receptor with glutamate as an agonist and glycine co-agonist on these cells results in calcium influx, which can be monitored with fluorescent indicator Fluo-4.
For experiments, the cells were seeded onto poly-D-lysine-coated 96-well black plates with clear bottom (Corning) at a density of ˜50,000 cells/well. After overnight culture, the growth medium was removed from the wells and the cells were incubated at 37° C. for 60 minutes in Hanks buffer containing 4 μM fluo-4-AM (Invitrogen) and 0.1% bovine serum albumin (BSA). […] The cell plates were placed onto an FDSS Cell fluorescence reader (Hamamatsu). After 20 seconds of reading background fluorescence, agonist glutamate at final 100 µM and co-agonist glycine at final 50 μM were added to the cells to activate the receptor, and the resulting fluorescence changes were recorded and quantified. Based on the changes in fluorescence intensity, the pharmacological effect of test compounds was analyzed and the IC50 values derived from a non-linear least squares fitting of the concentration-dependent response to a standard logistic equation using Prism (Graphpad Software, Inc.): Amplitude=Max Amplitude/(1+(IC50/[antagonist])^n).

IC50: > 10 µM
SMILES: FC(F)(F)c1ccc(C(F)(F)CN2CCC(Nc3ncnc4[nH]ccc34)CC2)cn1 [C-127^A′]
